By UniProt entry, the sequences of proteins in these tests, tags left out.
UniProt P05177, whole entry: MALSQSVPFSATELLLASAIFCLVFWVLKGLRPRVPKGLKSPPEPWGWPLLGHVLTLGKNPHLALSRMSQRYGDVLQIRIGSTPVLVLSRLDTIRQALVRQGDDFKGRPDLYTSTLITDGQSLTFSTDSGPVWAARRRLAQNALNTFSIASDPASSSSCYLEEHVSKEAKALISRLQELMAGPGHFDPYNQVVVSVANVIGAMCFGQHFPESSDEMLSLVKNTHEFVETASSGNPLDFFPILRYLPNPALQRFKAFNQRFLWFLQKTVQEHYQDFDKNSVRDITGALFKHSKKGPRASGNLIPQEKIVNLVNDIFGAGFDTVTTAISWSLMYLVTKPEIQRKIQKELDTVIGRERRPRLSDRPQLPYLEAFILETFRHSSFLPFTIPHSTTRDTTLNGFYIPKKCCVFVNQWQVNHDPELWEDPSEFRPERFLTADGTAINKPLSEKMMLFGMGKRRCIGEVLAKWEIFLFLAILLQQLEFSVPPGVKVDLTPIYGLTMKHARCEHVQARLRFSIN

In article PMC9444296 (Investigative Radiology, 2022):

Target: CYP1A2 (Homo sapiens, UniProt P05177)
Conditions: CYP1A2, positive control selective inhibitor, human liver microsomes

Compound: O=c1cc(-c2ccccc2)oc2c1ccc1ccccc12 [α-naphthoflavone, reference compound]
- enzyme activity decreased by: 74.8%
